Values quoted from earlier work as cited in publication PMC8129907 (Journal of Bone and Joint Infection, 2021).

Conditions: range across clinical and experimental studies of intraosseous vancomycin; ref Young et al., 2014; Chin et al., 2018; Loc-Carrillo et al., 2016; Rubio-Martinez et al., 2006; Chastagner et al., 2001; cited from earlier work

Structure (SMILES): CN[C@H](CC(C)C)C(=O)N[C@H]1C(=O)N[C@@H](CC(N)=O)C(=O)N[C@H]2C(=O)N[C@H]3C(=O)N[C@H](C(=O)N[C@H](C(=O)O)c4cc(O)cc(O)c4-c4cc3ccc4O)[C@H](O)c3ccc(c(Cl)c3)Oc3cc2cc(c3O[C@@H]2O[C@H](CO)[C@@H](O)[C@H](O)[C@H]2O[C@H]2C[C@](C)(N)[C@H](O)[C@H](C)O2)Oc2ccc(cc2Cl)[C@H]1O [vancomycin]
- mean peak drug plasma concentrations: 1.8 to 11 µg/mL
